# From patent publication EP4732839A1, “USE OF COMPOUND IN TREATMENT OF LIVER DISEASES” (priority 2023, dated 2025)
# Details: 3/10/20 mpk i.g., livers collected 1 h, 2 h, 4 h post-dose
# Procedure: C57BL/6J wild-type female mice (6 weeks old) were randomly grouped. After administration at different doses, whole blood and liver tissues of the mice were separately collected at 1 h, 2 h, and 4 h for detection of a plurality of parameters to evaluate the effect of the drugs on the liver.
# Liver tissues and blood were collected at 1 h, 2 h, and 4 h after single dosing.
# The supernatant was collected and stored (-20 °C); • (3) IFN-α, IP-10, IL-6, and TNF-α were detected using an ELISA kit. • (C) Remaining liver tissue-HE staining and pathological evaluation. • (D) 1/2 blood (whole blood)-liver function parameter detection: AST (aspartate aminotransferase), ALT (alanine aminotransferase/glutamate pyruvate transaminase), ALP (alkaline phosphatase), ALB (albumin), and GGT (γ-glutamyl transferase). • (E) 1/2 blood-serum preparation-reserve for ELISA.
compound,measurement,value
COCCNc1nc(N)nc2ccc(Cc3ccc(CN(C)C)cc3)nc12 [Compound I],Liver HE staining,did not cause apparent pathological damage to the liver tissues
